Columns and labels:
sigmoid colon biopsies = experiment: Ussing chamber flux across sigmoid colon mucosal biopsies; set-up: species or system human
Method: (§1) The following was performed to determine duodenal and colonic barrier function and endotoxin activity in females with IBS-C in comparison to healthy. 16 IBS-C (Rome III) patients and 13 matched healthy volunteers (females) were given oral lactulose, ^12C mannitol and ^13C mannitol measured cumulatively over 0-2 and 8-24 hours by HPLC-MS. 10 biopsies were obtained from duodenum and sigmoid colon. Mucosal transepithelial resistance (TER), FITC dextran (4 KDa), and E. coli K12 BioParticle flux were measured in Ussing chambers. Endotoxin activity (blood) was measured towards gram-negative bacterial lipopolysaccharide. Unpaired 2-sided t-tests were used for comparisons.

duodenum biopsies = experiment: Ussing chamber flux across duodenal mucosal biopsies; set-up: species or system human
Method: as §1

FITC-dextran
3 hrs FITC-dextran flux (ng/ml), mean (SEM) (sigmoid colon biopsies; Healthy Volunteers (n=12)): 321.7(153.9) ng/ml
3 hrs FITC-dextran flux (ng/ml), mean (SEM) (sigmoid colon biopsies; IBS-C (n=12)): 150.9(33.79) ng/ml
3 hr FITC-dextran flux (ng/ml), mean (SEM) (duodenum biopsies; Healthy Volunteers (n=13)): 181.6(49.25) ng/ml
3 hr FITC-dextran flux (ng/ml), mean (SEM) (duodenum biopsies; IBS-C (n=15)): 169.3(37.06) ng/ml
